scFv variants of Ab-14 (light chain) against a SARS-CoV-2 spike peptide

All variants were tested on one target, the spike HR2 peptide PDVDLGDISGINAS (SARS-CoV-2).

The variants keep the heavy chain, the linker and the frameworks of Ab-14 (scFv order VH, a (GGGGS)3 linker, VL).
VH: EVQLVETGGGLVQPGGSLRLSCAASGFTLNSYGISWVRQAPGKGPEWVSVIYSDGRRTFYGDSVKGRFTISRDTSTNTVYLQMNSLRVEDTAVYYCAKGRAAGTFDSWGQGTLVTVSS
VL: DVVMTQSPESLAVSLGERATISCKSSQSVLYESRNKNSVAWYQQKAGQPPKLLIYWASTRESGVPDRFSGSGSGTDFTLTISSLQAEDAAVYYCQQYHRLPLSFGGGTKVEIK

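The parent was found by panning a naive human phage display library on the peptide. Designed CDR sequences, proposed from the first random library and measured here. Group labels follow the data file (Ctrl: baseline library sampled from a position-specific scoring matrix, with some repeated check sequences; GP: Gaussian process model; GPLM: also part of the Gaussian process libraries; HC: hill climbing; Gen: genetic algorithm; Gibbs: Gibbs sampling; a sequence that several methods proposed may carry one label only). The assay is AlphaSeq: two haploid yeast populations carry antibody and antigen on their surface. Binding brings cells together so that they mate, and sequencing counts the barcode pairs among the diploids. The ratio of observed to expected reads was calibrated, replicate by replicate, on BCL2-family standards whose Kd was known from biolayer interferometry. There are six technical replicates.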

Positions count from residue 1 of the parent VL; K24H puts H in place of K. Variants here have at most six changes. Numbers give log10(Kd / nM), so 0 is 1 nM and 3 is 1 µM. Smaller is tighter. A mean of the replicates is given; it leaves out those without a signal. Where no diploid with the target was found in any replicate, the entry reads "no signal": below detection, most likely a poor binder, though not proof of it. Where one sequence has several entries in the source, the replicates are pooled. Of ten entries with the parent sequence, four were seen in most replicates (averages 0.34 to 2.37), three in one and three in none, so single entries are noisy. In the paper, a design with two or fewer of six values counts as a poor binder. The range of this assay differs from that of the first round, and the authors advise against merging the two. As a blank, each scFv also met three strains without target: over all light chain designs, 4% of these pairings were detected, typically at 2.64 and seldom below 1.59.

* K24H/Q27E/S38N/W56N [GP_HC] -> 0.14 (6 of 6 replicates)
* S25T/S26P/S28G/W56S/T59V [GP_HC] -> -0.19 (6 of 6 replicates)
* L30M/W56A/Q96E [Ctrl] -> 1.48 (6 of 6 replicates)
* S25L/V29E/W56N/E61M/S62V [GP_Gen] -> -0.24 (6 of 6 replicates)
* L30M/Y31M/W56D [GP_HC] -> 0.12 (6 of 6 replicates)
* W56D/S103K [Ctrl] -> 0.44 (6 of 6 replicates)
* K36S/Q96G [Ctrl] -> 1.82 (1 of 6 replicates)
* S25T/S26L/W56H/S62D/R99Q [GP_HC] -> 0.31 (6 of 6 replicates)
* Y31G/N35Q/W56H/Q95F [Ctrl] -> 2.21 (2 of 6 replicates)
* S25V/W56E/E61C [GP_Gen] -> 1.14 (6 of 6 replicates)
* S25F/V29Y/W56E [GPLM_HC] -> -0.16 (6 of 6 replicates)
* L30E/V39L/W56G/P101E [Ctrl] -> no signal (0 of 6 replicates)
* S25L/W56E/E61M/S62E [GP_Gen] -> -0.33 (6 of 6 replicates)
* S25L/Q27M/W56E/S62V [GP_Gen] -> -0.10 (6 of 6 replicates)
* S25V/S26L/W56H/S62D/Q96L [GP_HC] -> 2.73 (1 of 6 replicates)
* R34G/W56E/T59Q [GP_HC] -> 0.45 (6 of 6 replicates)
* S25I/N35E [Ctrl] -> 0.86 (6 of 6 replicates)
* S25A/S26E/Q27G/V29W/W56N/T59E [GP_Gibbs] -> -0.55 (6 of 6 replicates)
* S26D/V29E/Y31A/T59C [Ctrl] -> 1.74 (6 of 6 replicates)
* S33R/W56S/S62L [Ctrl] -> -0.18 (6 of 6 replicates)
* Q27L/V29G/R99Q [Ctrl] -> 1.77 (6 of 6 replicates)
* V29F/K36V/W56E [GP_HC] -> -0.20 (6 of 6 replicates)
* K36I/S62E [Ctrl] -> no signal (0 of 6 replicates)
* W56N/R99I/S103Y [Ctrl] -> 0.50 (6 of 6 replicates)
* S26P/W56S/E61Q [Ctrl] -> 0.44 (6 of 6 replicates)
* S26D/Y31D/W56E [Ctrl] -> 0.07 (6 of 6 replicates)
* S25L/V29E/L30G/W56N [GP_Gen] -> -0.43 (6 of 6 replicates)
* S26P/V29E/W56E [GP_Gen] -> 0.30 (6 of 6 replicates)
* S25I/V29W/K36F/N37W/W56G [GP_HC] -> 0.47 (6 of 6 replicates)
* W56N/Q96G/P101C [Ctrl] -> 1.47 (6 of 6 replicates)
* S25V/Y31M/K36S/W56D [GP_Gen] -> -0.15 (6 of 6 replicates)
* W56N/S103G [Ctrl] -> 0.80 (6 of 6 replicates)
* K24F [Ctrl] -> 2.88 (3 of 6 replicates)
* S26M/L30F/R34E/S103P [Ctrl] -> 1.61 (14 of 30 replicates)
* V29D/W56G/Q96E [GP_HC] -> 0.43 (6 of 6 replicates)
* K24I/S25L/Y31M/W56D [GP_HC] -> -0.03 (6 of 6 replicates)
* L30R/W56E/R99H [Ctrl] -> 0.50 (6 of 6 replicates)
* K24S/H98K [Ctrl] -> 2.38 (4 of 6 replicates)
* L30S/L102F [Ctrl] -> 1.60 (5 of 6 replicates)
* K24F/S25F/N35T/W56N [GP_HC] -> 0.08 (6 of 6 replicates)
* S25L/S62L [Ctrl] -> 0.65 (6 of 6 replicates)
* W56G/P101W [Ctrl] -> no signal (0 of 6 replicates)
* S25L/S26P/W56N/S62M [GP_Gen] -> -0.53 (6 of 6 replicates)
* V29E/S103K [Ctrl] -> 2.99 (5 of 6 replicates)
* S25L/S26P/V29M/L30E/N35M/W56H [GP_Gibbs] -> 0.18 (6 of 6 replicates)
* S25Q/E32Q/R34V/W56D/E61C [GP_HC] -> -0.19 (6 of 6 replicates)

Picked from the list: the 7 lowest averages where every replicate gave a value.

* S25A/S26E/Q27G/V29W/W56N/T59E [GP_Gibbs] = -0.55 (6 of 6 replicates)
* S25L/S26P/W56N/S62M [GP_Gen] = -0.53 (6 of 6 replicates)
* S25L/V29E/L30G/W56N [GP_Gen] = -0.43 (6 of 6 replicates)
* S25L/W56E/E61M/S62E [GP_Gen] = -0.33 (6 of 6 replicates)
* S25L/V29E/W56N/E61M/S62V [GP_Gen] = -0.24 (6 of 6 replicates)
* V29F/K36V/W56E [GP_HC] = -0.20 (6 of 6 replicates)
* S25Q/E32Q/R34V/W56D/E61C [GP_HC] = -0.19 (6 of 6 replicates)

Data: MIT Lincoln Laboratory AlphaSeq set, Li et al. 2023, doi:10.1038/s41467-023-39022-2, as distributed in FLAb.